## Binding of CDR-mutated scFvs to a peptide of the spike HR2 region

Binding partner: SARS-CoV-2 spike HR2 peptide, sequence PDVDLGDISGINAS.

Ab-91 is the parent antibody, in scFv form: VL, then a 15-residue (Gly4Ser)3 linker, then VH. The light chain is unchanged in all variants.
VL: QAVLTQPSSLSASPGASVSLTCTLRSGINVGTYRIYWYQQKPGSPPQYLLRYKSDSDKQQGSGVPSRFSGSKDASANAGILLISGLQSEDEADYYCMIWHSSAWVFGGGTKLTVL
VH: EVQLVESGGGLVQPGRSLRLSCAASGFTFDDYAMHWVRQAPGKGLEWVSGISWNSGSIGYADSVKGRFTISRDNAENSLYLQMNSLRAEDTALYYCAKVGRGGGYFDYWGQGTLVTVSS

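The starting antibody came from a phage panning campaign against this peptide. Library AAYL51 holds single substitutions and randomly drawn double and triple substitutions in the CDRs. The assay is AlphaSeq: two haploid yeast populations carry antibody and antigen on their surface. After mating in shaken culture at 30 °C for 16 h, diploids were selected and their barcode pairs sequenced. A regression on co-assayed BCL2-family reference pairs converts the normalised counts of each replicate to an apparent Kd. Mating was done three times.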

Each variant is given by its three heavy chain CDRs, as the data file delimits them; those of the parent are GFTFDDYAMH, GISWNSGSIGYADSVK, VGRGGGYFDY. All variants listed here change Y105 of the VH, counted from its first residue. Affinities are written as log10 Kd with Kd in nM; a lower number is a better binder. A mean of the replicates is given; it leaves out those without a signal. "nd" marks a missing value. The strain was present, yet no cells mated with the target were sequenced in any replicate, which points to weak or no binding. Empty control strains, which show no peptide, gave a signal in 21% of pairings with library AAYL51; the median was 4.54 and 95% of these signals were weaker than 3.26. No background was subtracted. The control count says in how many pairings with the empty strains this scFv gave a signal.

The variant GFTFDDYAMH / GISWVSGSIGNADSVK / VGRGGGGFDY showed 5.54 (2 of 3 replicates; controls 5 of 9).
The variant GFTFDDYAYH / GISGNSGSIGYADSVK / VGRGGGVFDY showed 3.09 (1 of 3 replicates; controls 0 of 9).
The variant GFTFDDYAMH / GISWNSYSIGYADSVK / VGRGGGWFDY showed 3.35 (3 of 3 replicates; controls 4 of 9).
The variant GFTFDDYAMH / GISWNSGSIGYAISVK / VGRGKGCFDY showed nd (0 of 3 replicates; controls 1 of 9).
The variant GFTFDDYAMH / GISWNSGSIGYADSVK / VGRGGVRFDY showed 2.83 (3 of 3 replicates; controls 3 of 9).
The variant GFTFDDYAMH / GISDNSGSIGSADSVK / VGRGGGAFDY showed nd (0 of 3 replicates; controls 0 of 9).
The variant GFTFDDEAMH / GISWYSGSIGYADSVK / VGRGGGRFDY showed 4.28 (1 of 3 replicates; controls 3 of 9).
The variant GFTFDDYAMH / GSAWNSGSIGYADSVK / VGRGGGQFDY showed nd (0 of 3 replicates; controls 0 of 9).
The variant GFTFDDYAMH / GISWNSGSIGYLDSVK / VGRGGGAFDY showed 3.05 (3 of 3 replicates; controls 3 of 9).
The variant GFTFDDYAAH / GISWNSGSIGYADAVK / VGRGGGNFDY showed nd (0 of 3 replicates; controls 1 of 9).
The variant GFTFDDYAMH / GNSWNSGSIGYADSVK / VGRGGGLFDY showed 4.32 (2 of 3 replicates; controls 2 of 9).
The variant GFTFDDYAMH / GISWNFGSIGYADSVK / VGRGGGTKDY showed 4.14 (1 of 3 replicates; controls 0 of 9).
The variant GFTFDDYAMH / GISWNSGSIGYEDSVK / VGRGGGAFDY showed 1.30 (3 of 3 replicates; controls 9 of 9).
The variant GFTFDDYAMH / GISWNSGSIGYLDSVK / CGRGGGTFDY showed 3.33 (3 of 3 replicates; controls 4 of 9).
The variant GFTFDYYAMH / GISWNSGSIFYADSVK / VGRGGGMFDY showed nd (0 of 3 replicates; controls 2 of 9).
The variant GFTFDDYAMH / GTSWNSRSIGYADSVK / VGRGGGLFDY showed 4.42 (2 of 3 replicates; controls 1 of 9).
The variant GFKFDDYAMH / GISWNEGSIGYADSVK / VGRGGGWFDY showed 4.16 (1 of 3 replicates; controls 4 of 9).
The variant KFTFDDYAMH / GISWNSGSIGYADSVK / VGRGGGTFDY showed 4.40 (2 of 3 replicates; controls 2 of 9).
The variant GFTFDDYAMH / GISWNSGSIGKAQSVK / VGRGGGIFDY showed 4.48 (1 of 3 replicates; controls 4 of 9).
The variant GFTFDDYAMH / GISWNSGSIGYADSVK / VGRGGGPFDY showed nd (0 of 3 replicates; controls 0 of 9).
The variant NFTFDDYAMH / GISWNAGSIGYADSVK / VGRGGGKFDY showed 4.71 (1 of 3 replicates; controls 0 of 9).
The variant GFTFDDYAMH / GISWNSGSIGYADSVK / VGRGGGCFDY showed 1.03 (3 of 3 replicates; controls 2 of 9).
The variant GFTFDDYAMH / GISWNSGSIGYCDSVK / VGRGGGVFDY showed nd (0 of 3 replicates; controls 1 of 9).
The variant GFTFDDYAMH / GIQWNPGSIGYADSVK / VGRGGGCFDY showed 5.30 (2 of 3 replicates; controls 6 of 9).
The variant GFTFDDYAQH / GISSNSGSIGYADSVK / VGRGGGVFDY showed nd (0 of 3 replicates; controls 1 of 9).
The variant DFTLDDYAMH / GISWNSGSIGYADSVK / VGRGGGTFDY showed 3.37 (1 of 3 replicates; controls 0 of 9).
The variant GFTFDDYAMH / GISWNHGSIGYADSVK / VGRGWGRFDY showed 3.72 (1 of 3 replicates; controls 4 of 9).
The variant DFTFDDYAMH / GISWNSGSIGVADSVK / VGRGGGWFDY showed 5.40 (1 of 3 replicates; controls 2 of 9).
The variant GFEFDDYAMH / GISWNSGSIGYADSVV / VGRGGGPFDY showed nd (0 of 3 replicates; controls 0 of 9).
The variant GFTFDDYASH / GISWNSGSIGYAISVK / VGRGGGIFDY showed 4.88 (1 of 3 replicates; controls 4 of 9).
The variant GWTFDDYAMH / GISWNSGSIMYADSVK / VGRGGGSFDY showed 4.38 (1 of 3 replicates; controls 2 of 9).
The variant GFTFDQYACH / GISWNSGSIGYADSVK / VGRGGGAFDY showed 3.69 (1 of 3 replicates; controls 2 of 9).
The variant GFTFDDYAMH / GISWNSGSILYADSVK / VGRGGGWFDY showed 4.64 (2 of 3 replicates; controls 1 of 9).
The variant MFSFDDYAMH / GISWNSGSIGYADSVK / VGRGGGAFDY showed 3.51 (2 of 3 replicates; controls 1 of 9).
The variant GFTFDDYAMH / GISWASGSIHYADSVK / VGRGGGMFDY showed nd (0 of 3 replicates; controls 1 of 9).
The variant GFTFDDYAMH / GISWNSGSIGYADSVR / VGRGGGFLDY showed 1.07 (3 of 3 replicates; controls 2 of 9).
The variant GFTFDDYAPH / GISWNSGSIGYADSVK / VGRGEGSFDY showed nd (0 of 3 replicates; controls 0 of 9).
The variant GFTFDDYQMH / GISWNSGSIGYADSVK / VGRGGGETDY showed 4.04 (2 of 3 replicates; controls 3 of 9).

The opening 6 entries, copied out:

{"CDR-H1": "GFTFDDYAMH", "CDR-H2": "GISWVSGSIGNADSVK", "CDR-H3": "VGRGGGGFDY", "mean log10 Kd (nM)": "5.54", "replicates with signal": "2/3", "empty controls": "5/9"}
{"CDR-H1": "GFTFDDYAYH", "CDR-H2": "GISGNSGSIGYADSVK", "CDR-H3": "VGRGGGVFDY", "mean log10 Kd (nM)": "3.09", "replicates with signal": "1/3", "empty controls": "0/9"}
{"CDR-H1": "GFTFDDYAMH", "CDR-H2": "GISWNSYSIGYADSVK", "CDR-H3": "VGRGGGWFDY", "mean log10 Kd (nM)": "3.35", "replicates with signal": "3/3", "empty controls": "4/9"}
{"CDR-H1": "GFTFDDYAMH", "CDR-H2": "GISWNSGSIGYAISVK", "CDR-H3": "VGRGKGCFDY", "mean log10 Kd (nM)": "nd", "replicates with signal": "0/3", "empty controls": "1/9"}
{"CDR-H1": "GFTFDDYAMH", "CDR-H2": "GISWNSGSIGYADSVK", "CDR-H3": "VGRGGVRFDY", "mean log10 Kd (nM)": "2.83", "replicates with signal": "3/3", "empty controls": "3/9"}
{"CDR-H1": "GFTFDDYAMH", "CDR-H2": "GISDNSGSIGSADSVK", "CDR-H3": "VGRGGGAFDY", "mean log10 Kd (nM)": "nd", "replicates with signal": "0/3", "empty controls": "0/9"}

Parent in this assay: reference entry 1.86, copy in this library 0.88.

The measurements come from Engelhart et al. 2022 (doi:10.1038/s41597-022-01779-4) through the FLAb antibody collection.